The test concerns the target ZO1 mutant lacking the actin-binding-domain (UniProt Q07157). Nature of the test: partitioning of actin into ZO1 surface condensates on supported lipid bilayers.

Protein sequences, listed by entry. Tags and fused reporters are not part of them. Lines headed by an entry give the natural chain unless they say otherwise; changes in a name come on top.
UniProt Q07157: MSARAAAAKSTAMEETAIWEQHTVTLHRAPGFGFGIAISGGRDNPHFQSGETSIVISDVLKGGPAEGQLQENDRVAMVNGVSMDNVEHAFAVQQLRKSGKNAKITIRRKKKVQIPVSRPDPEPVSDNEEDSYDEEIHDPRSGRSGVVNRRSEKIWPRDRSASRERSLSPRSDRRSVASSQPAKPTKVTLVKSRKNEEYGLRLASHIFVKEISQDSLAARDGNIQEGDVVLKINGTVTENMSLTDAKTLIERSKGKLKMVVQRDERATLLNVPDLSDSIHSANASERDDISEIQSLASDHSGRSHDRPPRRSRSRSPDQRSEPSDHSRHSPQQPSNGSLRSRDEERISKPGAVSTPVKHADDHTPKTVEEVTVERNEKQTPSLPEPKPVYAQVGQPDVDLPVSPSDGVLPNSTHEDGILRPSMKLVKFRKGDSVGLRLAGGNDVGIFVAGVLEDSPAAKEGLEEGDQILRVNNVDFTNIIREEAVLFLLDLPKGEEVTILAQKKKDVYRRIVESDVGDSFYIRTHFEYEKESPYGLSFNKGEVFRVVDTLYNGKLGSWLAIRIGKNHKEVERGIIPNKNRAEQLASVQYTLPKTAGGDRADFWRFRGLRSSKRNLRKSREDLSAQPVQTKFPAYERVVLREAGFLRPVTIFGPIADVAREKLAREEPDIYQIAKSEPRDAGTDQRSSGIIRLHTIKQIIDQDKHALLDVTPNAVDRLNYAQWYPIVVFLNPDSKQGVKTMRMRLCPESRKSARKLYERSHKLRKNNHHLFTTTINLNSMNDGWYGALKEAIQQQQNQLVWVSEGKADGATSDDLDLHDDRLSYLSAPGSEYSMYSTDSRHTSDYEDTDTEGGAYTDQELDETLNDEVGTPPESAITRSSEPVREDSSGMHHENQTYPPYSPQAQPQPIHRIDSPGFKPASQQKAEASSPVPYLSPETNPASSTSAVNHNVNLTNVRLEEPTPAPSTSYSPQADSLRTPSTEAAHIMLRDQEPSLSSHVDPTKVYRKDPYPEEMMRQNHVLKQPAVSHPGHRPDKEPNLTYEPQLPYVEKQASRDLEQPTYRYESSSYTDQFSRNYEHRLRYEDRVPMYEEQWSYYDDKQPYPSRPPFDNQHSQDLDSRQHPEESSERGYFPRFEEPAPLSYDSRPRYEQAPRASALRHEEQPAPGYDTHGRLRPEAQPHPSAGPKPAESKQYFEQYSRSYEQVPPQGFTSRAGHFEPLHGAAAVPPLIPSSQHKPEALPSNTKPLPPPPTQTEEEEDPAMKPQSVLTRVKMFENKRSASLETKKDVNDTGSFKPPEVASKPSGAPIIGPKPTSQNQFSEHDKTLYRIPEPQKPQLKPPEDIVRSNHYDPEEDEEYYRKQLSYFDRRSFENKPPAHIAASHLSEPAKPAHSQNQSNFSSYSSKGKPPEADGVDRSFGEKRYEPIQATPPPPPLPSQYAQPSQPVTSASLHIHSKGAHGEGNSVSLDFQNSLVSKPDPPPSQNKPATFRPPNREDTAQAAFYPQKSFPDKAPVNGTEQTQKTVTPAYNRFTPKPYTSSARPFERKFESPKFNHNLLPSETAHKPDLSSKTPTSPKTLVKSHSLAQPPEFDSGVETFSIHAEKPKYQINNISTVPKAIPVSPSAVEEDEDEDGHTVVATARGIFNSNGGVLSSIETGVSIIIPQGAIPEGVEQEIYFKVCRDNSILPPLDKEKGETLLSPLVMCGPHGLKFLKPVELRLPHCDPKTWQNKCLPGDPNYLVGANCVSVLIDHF

From doi:10.1101/2023.06.24.546380 come the findings set out here.

“G-actin-Alexa Fluor 647 (from UniProt P68135 1-377) (natural protein)” returned a fold reduction of enrichment against ZO1-WT condensates of 2 fold reduced.
